Measured affinities in a library of Ab-14 light chain variants

The measurements come from Li et al. 2023 (doi:10.1038/s41467-023-39022-2) through the FLAb antibody collection.

All variants were tested on one target, the spike HR2 peptide PDVDLGDISGINAS (SARS-CoV-2).

Ab-14 is the parent antibody, in scFv form: VH, then a (GGGGS)3 linker, then VL. The heavy chain is unchanged in all variants.
VH: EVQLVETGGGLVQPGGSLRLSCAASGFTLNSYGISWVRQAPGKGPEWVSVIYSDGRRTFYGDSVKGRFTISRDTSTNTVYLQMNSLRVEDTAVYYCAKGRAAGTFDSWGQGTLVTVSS
VL: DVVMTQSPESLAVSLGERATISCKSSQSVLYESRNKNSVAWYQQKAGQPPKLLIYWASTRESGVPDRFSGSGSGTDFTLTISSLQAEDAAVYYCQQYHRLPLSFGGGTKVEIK

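Phage display of a naive human antibody library on the peptide gave the parent. This is the validation round: designs drawn from the data on random variants, tested in the same kind of assay. Group labels follow the data file (Ctrl: baseline library sampled from a position-specific scoring matrix, with some repeated check sequences; Rand: our label for a block that the file lists under HC and that is probably the random mutants of the ten best first-round binders; GP: Gaussian process model; HC: hill climbing; Gen: genetic algorithm; Gibbs: Gibbs sampling; a sequence that several methods proposed may carry one label only). Affinity was read by AlphaSeq, a pooled yeast mating assay with surface-displayed partners. After mating in shaken culture at 30 °C for 16 h, diploids were selected and their barcode pairs sequenced. A regression on co-assayed BCL2-family reference pairs converts the normalised counts of each replicate to an apparent Kd. The assay was run in six technical replicates.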

Substitutions are numbered in sequence along the VL above, starting at 1 (not Kabat). Variants here have at most six changes. Values are log10 of the apparent Kd in nM; lower means stronger binding. The mean shown is taken over the replicates in which the pair was detected. A pair that was not seen in any replicate is written "no signal"; this usually means weak binding, but a binder can also be missed.

* S25L S26K W56G [GP_Gen] = -0.48 (6 of 6 replicates; controls 1 of 18)
* K24H Q27P K36G S38N W56N [GP_HC] = -0.19 (6 of 6 replicates; controls 3 of 18)
* S25L S26Q W56N E61L [GP_Gen] = -0.04 (6 of 6 replicates; controls 0 of 18)
* S25L V29D K36S W56E [GP_Gen] = -0.34 (6 of 6 replicates; controls 1 of 18)
* V29M Y31N K36E E61L [Ctrl] = 1.35 (2 of 6 replicates; controls 0 of 18)
* Q27I V29Y W56E L100H L102T [Rand] = 0.98 (6 of 6 replicates; controls 0 of 18)
* S25A R34H W56N E61M [GP_HC] = 0.80 (6 of 6 replicates; controls 5 of 18)
* S25F S28K N35A W56D T59Q E61L [GP_Gibbs] = 0.33 (6 of 6 replicates; controls 0 of 18)
* S25V W56N S62A [GP_Gen] = -0.44 (6 of 6 replicates; controls 3 of 18)
* L30S W56K [Ctrl] = 1.80 (3 of 6 replicates; controls 0 of 18)
* S25L Q27I V29Y K36T W56E [GP_HC] = 0.02 (6 of 6 replicates; controls 1 of 18)
* S26M L30Q S33D W56E E61C [GP_Gibbs] = 0.77 (6 of 6 replicates; controls 0 of 18)
* V29Q L30M Y31D R34G N35A [Ctrl] = 0.85 (6 of 6 replicates; controls 1 of 18)
* Q27N V29Y R34G W56E [GP_HC] = 0.24 (6 of 6 replicates; controls 1 of 18)
* R34E H98M [Ctrl] = 0.37 (6 of 6 replicates; controls 0 of 18)
* W56D T59L H98E [Ctrl] = 0.37 (6 of 6 replicates; controls 0 of 18)
* S25Q Q27M S33E S58K [Ctrl] = no signal (0 of 6 replicates; controls 1 of 18)
* S25L V29M K36V W56Q S103M [GP_Gibbs] = -0.28 (6 of 6 replicates; controls 1 of 18)
* S25F V29G N35T W56N S58V S62T [GP_HC] = -0.13 (6 of 6 replicates; controls 0 of 18)
* S25F L30A N35T W56E [GP_HC] = 0.39 (6 of 6 replicates; controls 2 of 18)
* S25F L30P N35T W56E [Ctrl] = -0.22 (6 of 6 replicates; controls 0 of 18)
* S25L W56N H98I S103G [Ctrl] = -0.32 (6 of 6 replicates; controls 0 of 18)
* Q27S V29Y R34M W56N [GP_HC] = 0.32 (6 of 6 replicates; controls 4 of 18)
* Q27I V29Y Y31E W56N [GP_HC] = -0.42 (6 of 6 replicates; controls 0 of 18)
* Y31P R34F W56A [Ctrl] = 0.30 (6 of 6 replicates; controls 0 of 18)
* K24N V29D W56G A57G S58N [GP_HC] = 0.37 (6 of 6 replicates; controls 1 of 18)
* K24H S25L Q27D S28V V29N W56N [GP_HC] = -0.17 (6 of 6 replicates; controls 2 of 18)
* S25L V29W E32L W56N T59Q S62D [GP_Gibbs] = -0.26 (6 of 6 replicates; controls 1 of 18)
* S25L S26P S28G W56G T59L [GP_HC] = -0.41 (6 of 6 replicates; controls 3 of 18)
* S26Q Q96T [Ctrl] = 2.43 (2 of 6 replicates; controls 0 of 18)
* S25L V29W W56N T59Q E61Y [GP_Gen] = 0.22 (6 of 6 replicates; controls 5 of 18)
* S25L S26Q W56Q T59Q [GP_Gen] = -0.18 (6 of 6 replicates; controls 0 of 18)

The opening 3 entries, copied out:

changes,group,"log10 Kd (nM), mean",seen in,signal with controls
S25L S26K W56G,GP_Gen,-0.48,6/6,1/18
K24H Q27P K36G S38N W56N,GP_HC,-0.19,6/6,3/18
S25L S26Q W56N E61L,GP_Gen,-0.04,6/6,0/18

The range of this assay differs from that of the first round, and the authors advise against merging the two. Background: pairings of all light chain designs with three empty control strains gave a value in 4% of cases (median 2.64, 5th percentile 1.59). Values in that range, when seen in few replicates, are hard to tell from nonspecific mating. The control count says in how many pairings with the empty strains this scFv gave a signal. Of ten entries with the parent sequence, four were seen in most replicates (averages 0.34 to 2.37), three in one and three in none, so single entries are noisy. The authors' rule: three or more of the six replicates give a measured affinity, fewer mean a poor binder.